These results are taken from PubChem BioAssay AID2751 (The Scripps Research Institute Molecular Screening Center, 2010).

Chains of the proteins cited; added tags and fusions are not shown.
UniProt Q4J6C6, whole entry: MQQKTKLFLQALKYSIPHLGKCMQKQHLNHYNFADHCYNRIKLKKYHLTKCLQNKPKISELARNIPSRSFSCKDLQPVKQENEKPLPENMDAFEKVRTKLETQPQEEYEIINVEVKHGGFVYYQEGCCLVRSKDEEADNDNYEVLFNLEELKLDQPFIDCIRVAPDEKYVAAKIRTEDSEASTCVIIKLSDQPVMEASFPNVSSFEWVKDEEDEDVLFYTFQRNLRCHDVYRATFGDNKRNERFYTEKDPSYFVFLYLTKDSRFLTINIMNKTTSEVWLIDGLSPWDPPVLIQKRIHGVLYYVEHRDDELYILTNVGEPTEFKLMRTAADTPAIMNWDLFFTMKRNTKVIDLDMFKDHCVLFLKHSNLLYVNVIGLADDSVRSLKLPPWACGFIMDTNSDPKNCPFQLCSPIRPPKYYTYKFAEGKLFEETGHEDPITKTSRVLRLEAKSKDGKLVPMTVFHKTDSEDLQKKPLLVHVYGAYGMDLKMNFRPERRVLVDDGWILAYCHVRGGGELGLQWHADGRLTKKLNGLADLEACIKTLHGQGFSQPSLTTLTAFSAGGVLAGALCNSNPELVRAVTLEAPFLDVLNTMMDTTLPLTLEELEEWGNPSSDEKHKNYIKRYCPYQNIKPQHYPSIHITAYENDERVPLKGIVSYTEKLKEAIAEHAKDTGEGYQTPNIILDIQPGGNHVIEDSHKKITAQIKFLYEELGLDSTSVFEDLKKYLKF

The list shows a part of the results, in another mix than the full data. Calls of active or inactive are those of the source. Rule as the data show it: active = inhibition above about 43%; inactive = the rest.

This assay deals with Prolyl endopeptidase-like (Homo sapiens) (UniProt Q4J6C6). Nature of the assay: human PREPL activity-probe blockers – biochemical, fluorescence polarization, primary screen (AID 2751).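 Also: 0% = enzyme with DMSO and 100% = wells lacking enzyme.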 The settings on record: recombinant PREPL, fluorescence polarization activity-based probe; at 5.96 µM; hits give high values. (In general: Fluorescence polarisation rises when a labelled molecule tumbles more slowly, as on binding a larger partner.)
One may read the inhibition as the drop in the measured response relative to a control, in per cent. Turning to `COc1cc(I)ccc1[As](=O)(O)O`, the inhibition is inactive: 12.4%.
